Assay results as given in US8278296B2, “Manipulation of brain CDP-diacylglycerol and uses thereof” (priority 2006, dated 2012).
“Also recorded” adds a separate entry of the source.

System: phosphoinositide-specific phospholipase C / PI metabolism
Assay: Blockade of PI hydrolysis (neomycin, U73122) on antidepressant-induced CDP-DG, PI and IP responses in brain slices
Type: cell-based, rat
Conditions: for inhibition of antidepressant-induced [3H]CDP-diacylglycerol production: 100 μM fluoxetine or 300 μM imipramine, desipramine, paroxetine, maprotiline, nomifensine
[1] = hippocampal or prefrontal cortical slices, maximally effective antidepressant concentrations

## neomycin
Hippocampal or prefrontal cortical slices
  inhibition of antidepressant-induced [3H]CDP-diacylglycerol production: complete blockade
Hippocampal or prefrontal cortical slices, listed as Neomycin
  inhibition of antidepressant-induced [3H]CDP-diacylglycerol production: concentration-dependently blocked; also recorded: significantly and concentration-dependently inhibited
[1]
  inhibition of antidepressant-induced IP accumulation: concentration-dependently blocked
  inhibition of antidepressant-induced PI resynthesis: complete blockade
Hippocampal or prefrontal cortical slices, maximally effective antidepressant concentrations, listed as Neomycin
  inhibition of antidepressant-induced PI resynthesis: concentration-dependently blocked; also recorded: significantly and concentration-dependently inhibited
Neomycin alone
  effect of inhibitor alone on CDP-diacylglycerol: not significant
Neomycin alone, 0.3 mM
  effect of inhibitor alone on [3H]phosphatidylinositide levels: slight, but significant, increase
